Test results published in article PMC11363342 (ACS Central Science, 2024).
“And” between values parts separate entries of the source, which are not always exact repeats. Identical values can stand only once. Like-named read-outs stand apart in the source and are kept apart here.

What was measured:
[1] = molecular target: T1, endoplasmic reticulum α-glucosidase II (ER α-Glu II, GANAB) (Homo sapiens, UniProt Q14697); assay: biochemical; conditions: IC50 GANAB (μM) (ER-Glu-II)
T1 sequence (Q14697 29-944): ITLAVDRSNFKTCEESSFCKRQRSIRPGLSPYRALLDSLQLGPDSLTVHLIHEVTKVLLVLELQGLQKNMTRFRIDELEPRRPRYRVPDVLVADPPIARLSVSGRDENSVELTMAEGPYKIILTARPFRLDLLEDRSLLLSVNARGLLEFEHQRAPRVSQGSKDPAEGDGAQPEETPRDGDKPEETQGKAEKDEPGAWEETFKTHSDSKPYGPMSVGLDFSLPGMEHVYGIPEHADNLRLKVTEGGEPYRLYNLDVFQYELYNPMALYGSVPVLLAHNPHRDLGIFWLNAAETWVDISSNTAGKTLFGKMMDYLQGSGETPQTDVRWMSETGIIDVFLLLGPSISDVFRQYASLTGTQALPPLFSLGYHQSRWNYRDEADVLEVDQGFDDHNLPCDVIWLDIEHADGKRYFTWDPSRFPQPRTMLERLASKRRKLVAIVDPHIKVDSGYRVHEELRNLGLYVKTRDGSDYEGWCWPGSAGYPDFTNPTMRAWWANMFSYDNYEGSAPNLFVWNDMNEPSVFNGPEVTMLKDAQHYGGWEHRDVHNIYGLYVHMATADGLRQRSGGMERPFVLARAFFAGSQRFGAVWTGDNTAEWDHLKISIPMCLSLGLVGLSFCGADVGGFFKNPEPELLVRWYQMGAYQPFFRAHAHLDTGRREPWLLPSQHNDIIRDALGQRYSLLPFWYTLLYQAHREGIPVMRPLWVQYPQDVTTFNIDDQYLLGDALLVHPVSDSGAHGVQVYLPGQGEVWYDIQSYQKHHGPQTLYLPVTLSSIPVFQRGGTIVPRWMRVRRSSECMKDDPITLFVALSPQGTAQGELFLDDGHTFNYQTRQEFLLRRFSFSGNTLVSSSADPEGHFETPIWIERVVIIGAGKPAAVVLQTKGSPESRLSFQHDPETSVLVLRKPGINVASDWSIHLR
T1 sequence (P14314 15-528 partner): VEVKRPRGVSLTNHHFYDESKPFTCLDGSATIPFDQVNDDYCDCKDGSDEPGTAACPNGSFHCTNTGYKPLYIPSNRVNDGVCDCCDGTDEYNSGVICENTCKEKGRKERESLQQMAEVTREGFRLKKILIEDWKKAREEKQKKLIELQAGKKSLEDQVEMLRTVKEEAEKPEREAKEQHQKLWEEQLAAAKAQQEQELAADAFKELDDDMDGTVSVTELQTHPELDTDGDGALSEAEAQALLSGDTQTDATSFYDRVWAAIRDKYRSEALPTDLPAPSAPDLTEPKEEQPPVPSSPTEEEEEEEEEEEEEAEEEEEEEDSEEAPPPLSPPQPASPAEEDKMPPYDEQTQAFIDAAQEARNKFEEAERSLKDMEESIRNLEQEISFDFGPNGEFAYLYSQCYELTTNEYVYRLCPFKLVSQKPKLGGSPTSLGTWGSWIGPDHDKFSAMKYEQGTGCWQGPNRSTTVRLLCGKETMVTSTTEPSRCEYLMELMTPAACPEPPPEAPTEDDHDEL

[2] = molecular target: recombinant human GAA (Myozyme) (Homo sapiens, UniProt P10253); conditions: for IC50: IC50 GAA (μM)
[3] = fibroblast cell lysates, pH 7.0, 30 min preincubation at 37 °C, 4-MU-α-Glc
[4] = Myozyme, pH 4.0, 30 min preincubation at 37 °C, 4-MU-α-Glc

Row | SMILES | IC50 [1, 3] | IC50 [2, 4] | further results
1 | CCCCN1C[C@H](O)[C@@H](O)[C@H](O)[C@H]1CO [Compound 1, N-butyl-DNJ, reference compound] |  |  | IC50 [1]: 200 µM; IC50 [2]: 6.58 ± 2.4 µM
2 | OC[C@@H]1[C@@H](O)[C@H](O)[C@@H](O)CN1CCCCCOCc1ccc2ccccc2c1 [Compound 2, naphthyl-deoxynojirimycin] | 0.12 ± 0.07 µM | 0.19 ± 0.01 µM | 
3 | OC[C@@H]1[C@@H](O)[C@H](O)[C@@H](O)CN1CCCCCOCc1cc2ccccc2c2ccccc12 [Compound 3] | 0.15 ± 0.09 µM | 0.034 ± 0.004 µM | 
4 | OC[C@@H]1[C@@H](O)[C@H](O)[C@@H](O)CN1CCCCCOCC1CCCO1 (stereo partly drawn) [Compound 4] | 0.2 ± 0.05 µM | 0.82 ± 0.18 µM | 
5 | OC[C@@H]1[C@@H](O)[C@H](O)[C@@H](O)CN1CCCCCOCC12CC3CC(CC(C3)C1)C2 [Compound 5] |  |  | IC50 [1]: 0.21 ± 0.07 µM
6 | CC(C)(C)COCCCCCN1C[C@H](O)[C@@H](O)[C@H](O)[C@H]1CO [Compound 7] | 2.12 ± 0.38 µM | 2.19 ± 5.9 µM | 
7 | OC[C@H]1[C@@H](O)[C@H](O)[C@@H](O)CN1CCCCCOCC12CC3CC(CC(C3)C1)C2 [Compound 8] |  |  | IC50 [1]: 41.1 µM; GAA inhibition (in words) [2]: no activity
8 | OC[C@@H]1[C@@H](O)[C@H](O)[C@@H](O)[C@H]2O[C@@H]12 [Compound 9, 1,6-epi-cyclophellitol] |  | 6.7 ± 0.34 µM | 
9 | OC[C@@H]1[C@@H](O)[C@H](O)[C@@H](O)[C@H]2N[C@@H]12 [Compound 10, 1,6-epi-cyclophellitol aziridine] | 1.47 ± 1.45 µM | 0.2 µM | 
10 | O=S1(=O)O[C@@H]2[C@H](O)[C@@H](O)[C@H](O)[C@@H](CO)[C@@H]2O1 [Compound 11, 1,6-epi-cyclophellitol cyclosulfate] | 0.034 ± 0.004 µM | 0.038 ± 0.002 µM | 
11 | CO[C@@H]1[C@@H](O)[C@H](O)[C@@H](CO)[C@@H]2OS(=O)(=O)O[C@H]12 [Compound 12] | > 100 µM | > 100 µM | 
12 | CO[C@H]1[C@H](O)[C@@H](CO)[C@@H]2OS(=O)(=O)O[C@@H]2[C@@H]1O [Compound 13] | 39.8 µM | 37.3 µM | 
13 | CO[C@H]1[C@H](O)[C@@H](O)[C@H]2OS(=O)(=O)O[C@H]2[C@@H]1CO [Compound 14] | 8.15 µM and 8.2 µM | 2.3 µM | 
14 | COC[C@@H]1[C@@H](O)[C@H](O)[C@@H](O)[C@H]2OS(=O)(=O)O[C@@H]12 [Compound 15] | > 100 µM | > 100 µM | 
15 | CO[C@H]1[C@H]2OS(=O)(=O)O[C@H]2[C@H](CO)[C@@H](O)[C@@H]1OC [Compound 16] | > 100 µM | > 100 µM | 
16 | O=S1(=O)N[C@@H]2[C@H](O)[C@@H](O)[C@H](O)[C@@H](CO)[C@@H]2O1 [Compound 18] | > 100 µM | 2.63 µM and 6.1 µM | 
17 | O=S1(=O)N[C@@H]2[C@H](O)[C@@H](O)[C@H](O)[C@@H](CO)[C@@H]2N1 [Compound 19] | > 100 µM | > 100 µM | 
18 | OC[C@H]1C[C@@H]2O[C@@H]2[C@@H](O)[C@@H]1O [Compound 20] | 11.4 ± 2.3 µM | 13 µM | 
19 | OC[C@H]1C[C@@H]2N[C@@H]2[C@@H](O)[C@@H]1O [Compound 21] | 43.8 µM | > 100 µM | 
20 | O=S1(=O)O[C@@H]2[C@@H](O)[C@H](O)[C@@H](CO)C[C@@H]2O1 [Compound 22] | 20.3 ± 3.8 µM | 1.08 µM | GAA inhibition (in words) ([2]; enzyme activity assay): rather potent GAA inhibitor
21 | OC[C@H]1C[C@H]2[C@@H]([C@@H](O)[C@@H]1O)N2CCCCCOCc1ccc2ccccc2c1 (stereo partly drawn) [Compound 23] | > 100 µM | > 100 µM | 
22 | OC[C@H]1C[C@H]2[C@@H]([C@@H](O)[C@@H]1O)N2CCCCCOCc1ccc(-c2ccccc2)cc1 (stereo partly drawn) [Compound 24] | > 100 µM | > 100 µM | 
23 | CCCC(=O)N1[C@@H]2[C@@H](O)[C@H](O)[C@@H](CO)C[C@@H]21 [Compound 25] | > 100 µM | > 100 µM | 
24 | CCCCN1[C@@H]2[C@@H](O)[C@H](O)[C@@H](CO)C[C@@H]21 (stereo partly drawn) [Compound 26] | > 100 µM | > 100 µM | 
25 | OC[C@H]1C[C@H]2[C@@H]([C@@H](O)[C@@H]1O)N2CCCCCOCC12CC3CC(CC(C3)C1)C2 (stereo partly drawn) [Compound 27] | > 100 µM | > 100 µM | 
26 | OC[C@H]1C[C@H]2[C@@H]([C@@H](O)[C@@H]1O)N2CCCCCOCc1cccc2ccccc12 (stereo partly drawn) [Compound 28] | > 100 µM | > 100 µM | 
